Results: patent publication US20150018268A1, “MULTIVALENT SYNTHETIC COMPOUNDS AS ANTIBIOTIC TREATMENT” (CENTRE NATIONAL DE LA RECHERCHE SCIENTIFIQUE (CNRS), priority 2010, published 2015)

Columns and labels:
Settings in all cases: 24 h
[1] = tested on: Yersinia Enterocolitica; format: cell-based
Method: (§1) FIG. 3. Effect of Nucant 6L (N6L) on the proliferation of several Gram-negative (Gram-) bacteria species. All bacteria were cultivated to mid-logarithmic phase (optical density at 600 nm ranging from 0.2 to 0.5) in culture medium. Bacteria were then washed and diluted 1/100 in culture medium (LB) and incubated at 37° C. in 96-wells culture plate in the presence or absence of various concentrations of […] ranging from 10 to 1000 μM. […] C. freundii: Citrobacter freundii; Y. enterocolitica: Yersinia enterocolitica; P. aeruginosa: Pseudomonas aeruginosa; A. baumanii: Acinetobacter baumanii; E. coli: Escherichia coli. All bacteria were cultivated to mid-logarithmic phase (optical density at 600 nm ranging from 0.2 to 0.5) in culture medium. Bacteria were then washed and diluted 1/100 in culture medium (LB) and incubated at 37° C. in 96-wells culture plate in the presence or absence of various concentrations of […] ranging from 10 to 1000 μM.

[2] = tested on: Escherichia Coli; format: cell-based
Method: as §1

[3] = tested on: Pseudomonas Aeruginosa; format: cell-based
Method: as §1

[4] = tested on: Citrobacter Freundii; format: cell-based
Method: as §1

[5] = tested on: Acinetobacter Baumanii; format: cell-based
Method: as §1

[6] = tested on: Bacillus Subtilis; format: cell-based
Method: (§2) FIG. 2. Effect of Nucant 6L (N6L) on the proliferation of several Gram-positive (Gram+) bacteria species. All bacteria were cultivated to mid-logarithmic phase (optical density at 600 nm ranging from 0.2 to 0.5) in culture medium. Bacteria were then washed and diluted 1/100 in culture medium (LB) and incubated at 37° C. in 96-wells culture plate in the presence or absence of various concentrations of N6L ranging from 10 to 1000 μM. After an incubation period of 24 hours, optical density was measured to quantify the amount of bacteria in each well. B. Megaterium: Bacillus megaterium; S. aureus Met R: Meticillin resistant staphylococcus aureus; S. aureus Pen R: Penicillin resistant staphylococcus aureus; S. aureus Pen S: Penicillin sensitive staphylococcus aureus; B. subtilis: Bacillus subtilis; E. sakazaki: Enterobacter sakazaki.
(§3) All bacteria were cultivated to mid-logarithmic phase (optical density at 600 nm ranging from 0.2 to 0.5) in culture medium. Bacteria were then washed and diluted 1/100 in culture medium (LB) and incubated at 37° C. in 96-wells culture plate in the presence or absence of various concentrations of N6L ranging from 10 to 1000 μM. After an incubation period of 24 hours, optical density was measured to quantify the amount of bacteria in each well.

[7] = tested on: Bacillus Megaterium; format: cell-based
Method: as §2, §3

[8] = tested on: Staphilococcus Aureus (penicillin sensitive); format: cell-based, Staphylococcus aureus
Method: as §2, §3

[9] = tested on: Staphilococcus Aureus (penicillin resistant); format: cell-based, Staphylococcus aureus
Method: as §2, §3

[10] = tested on: Staphilococcus Aureus (meticillin resistant); format: cell-based, Staphylococcus aureus
Method: as §2, §3

- IC50 [1]: 45 µM
- IC50 [2]: 20 µM
- IC50 [3]: 30 µM
- IC50 [4]: 80 µM
- IC50 [5]: 300 µM
- IC50 [6]: < 50 µM
- IC50 [7]: < 20 µM
- IC50 [8]: 180 µM
- IC50 [9]: 70 µM
- IC50 [10]: 180 µM
Compound: CC(=O)N[C@@H](CCCCNC(=O)[C@H](CCCNC(=N)N)NC(=O)[C@@H]1CCCN1C[C@@H](N)CCCCN)C(=O)NC(C)(C)C(=O)NCC(=O)N[C@@H](CCCCNC(=O)[C@H](CCCNC(=N)N)NC(=O)[C@@H]1CCCN1C[C@@H](N)CCCCN)C(=O)NC(C)(C)C(=O)NCC(=O)N[C@@H](CCCCNC(=O)[C@H](CCCNC(=N)N)NC(=O)[C@@H]1CCCN1C[C@@H](N)CCCCN)C(=O)NC(C)(C)C(=O)NCC(=O)N[C@@H](CCCCNC(=O)[C@H](CCCNC(=N)N)NC(=O)[C@@H]1CCCN1C[C@@H](N)CCCCN)C(=O)NC(C)(C)C(=O)NCC(=O)N[C@@H](CCCCNC(=O)[C@H](CCCNC(=N)N)NC(=O)[C@@H]1CCCN1C[C@@H](N)CCCCN)C(=O)NC(C)(C)C(=O)NCC(=O)N[C@@H](CCCCNC(=O)[C@H](CCCNC(=N)N)NC(=O)[C@@H]1CCCN1C[C@@H](N)CCCCN)C(=O)NC(C)(C)C(=O)NCC(N)=O [Nucant N6L]
